Test results as given in patent publication US7550150B2, “Methods of treating or preventing a disease, disorder or condition associated with a viral infection” (Barros Research Institute, priority 2005, dated 2009).
Where two headings read alike, the source gives them in different places.

Columns and labels:
[1] = BALB/c, mouse, in vivo, ip, 75 mg/kg/day
[2] = BALB/c, mouse, in vivo, ip, 75 mg/kg/day; remark: listed apart in the source
[3] = C57BL/6, mouse, in vivo, ip, 75 mg/kg/day
[4] = BALB/c, mouse, in vivo, ip
[5] = C57BL/6, mouse, in vivo, ip, 75 mg/kg/day; remark: listed apart in the source

Measured: Tox Controls Surv/Total

NC(=O)c1ncn([C@@H]2O[C@H](CO)[C@@H](O)[C@H]2O)n1 [Ribavirin]
3/3: all assays above
